PubChem BioAssay AID651951 (The Scripps Research Institute Molecular Screening Center, 2012)
This is a selection; strong and weak results do not stand in their true shares. The source made the active and inactive calls.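 The calls were made as follows: active = inhibition above the run cutoff, the mean inhibition of all test compounds plus 3 SD (cut at about 49% in these data); inactive = the rest.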

Amino acid sequences for entries named in this document (tags omitted).
UniProt Q96RJ0, whole entry: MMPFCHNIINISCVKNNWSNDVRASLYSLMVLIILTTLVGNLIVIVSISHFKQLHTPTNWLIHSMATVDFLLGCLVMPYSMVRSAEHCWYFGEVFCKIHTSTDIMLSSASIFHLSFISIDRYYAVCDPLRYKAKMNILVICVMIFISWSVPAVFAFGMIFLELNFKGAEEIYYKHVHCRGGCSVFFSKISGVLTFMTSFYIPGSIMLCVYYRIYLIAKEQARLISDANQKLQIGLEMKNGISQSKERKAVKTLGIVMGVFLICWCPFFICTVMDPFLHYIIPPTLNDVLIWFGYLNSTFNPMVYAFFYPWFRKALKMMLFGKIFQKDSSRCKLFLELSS

Biological target: Trace amine-associated receptor 1 (Homo sapiens) (UniProt Q96RJ0)
Experiment: TAAR1 desensitization by agonist hits, confirmation, counter-screen for TAAR1 agonist project, cell-based, fluorescence, tachyphylaxis (AID 651951);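 also: beta-PEA stimulus applied at its EC80; loss of beta-PEA calcium signal after compound pretreatment read as receptor desensitization; 0% = DMSO with beta-PEA at EC80 and 100% = DMSO alone without agonist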
Conditions: CHO RD-HGA16 hTAAR1, Fluo-8 calcium, beta-PEA response inhibition; at 3 µM; active compounds read high

Compound	inhibition
CP(=O)(OC12CC3CC(CC(C3)C1)C2)OC12CC3CC(CC(C3)C1)C2	inactive: -5.62%
